Numbering of substitutions follows the chain as printed. Numbers in names are those of the source. Some results are limits rather than exact numbers.

The target of assay [1] is T1, recombinant human Fc gamma RIIa (CD32a) 131R (human, UniProt P12318 36-218).
T1 construct: also called Fc gamma RIIa (CD32) (Arg167)
T1 sequence (looked up): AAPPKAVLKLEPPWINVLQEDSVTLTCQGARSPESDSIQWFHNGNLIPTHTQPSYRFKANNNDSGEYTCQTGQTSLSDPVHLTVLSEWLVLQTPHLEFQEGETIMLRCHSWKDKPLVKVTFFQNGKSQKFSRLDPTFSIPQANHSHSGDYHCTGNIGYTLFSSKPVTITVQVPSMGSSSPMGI
Nature of the assay: BLI (Octet), FcγR on sensor, bivalent format. (BLI is a label-free optical method that tracks binding on a fibre tip over time.)

For assay [2], the target named is T2, recombinant human Fc gamma RIIIb (CD16b) (human, UniProt O75015 17-200).
T2 construct: also called FcRγIIIb
As to the kind of experiment: BLI (Octet), FcγR on sensor, bivalent format.

Assay [3] has as its target T3, recombinant human Fc gamma RIIa (CD32a) 131H (human, UniProt P12318 36-218).
T3 construct: also called FcRγIIa
T3 sequence (looked up): T1 sequence (looked up) with R132H
As to the kind of experiment: BLI (Octet), FcγR on sensor, bivalent format.

Assay [4] concerns the target T4, recombinant human Fc gamma RIIIa (CD16a) 158V (human, UniProt P08637 17-208).
T4 construct: also called FcRγIIIa; FcgRIIIa 158 V
Nature of the assay: BLI (Octet), FcγR on sensor, bivalent format.

Assay [5] concerns the target T5, recombinant human Fc gamma RIIIa (CD16a) 158F (human, UniProt P08637 17-208).
T5 construct: also called FcRγIIIa
Nature of the assay: BLI (Octet), FcγR on sensor, bivalent format.

Assay [6] addresses T6, recombinant human Fc gamma RI (CD64) (human, UniProt P12314 16-288).
T6 construct: also called FcRγI; FcgRI
As to the kind of experiment: BLI (Octet), FcγR on sensor, bivalent format.

For assay [7], the target named is T7, recombinant human Fc gamma RIIb/c (CD32b/c) (human, UniProt P31994 46-217).
T7 construct: also called FcRγIIb; FcgRIIb/c
T7 sequence (looked up): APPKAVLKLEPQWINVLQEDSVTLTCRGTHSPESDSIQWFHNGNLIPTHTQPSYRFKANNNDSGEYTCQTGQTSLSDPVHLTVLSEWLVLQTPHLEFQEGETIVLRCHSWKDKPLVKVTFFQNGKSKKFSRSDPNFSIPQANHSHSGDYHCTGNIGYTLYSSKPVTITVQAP
Nature of the assay: BLI (Octet), FcγR on sensor, bivalent format.

For assay [8], the target named is T2, recombinant human Fc gamma RIIIb (CD16b). Nature of the assay: SPR (Carterra LSA), antibody captured via anti-CH1, monovalent.
Assay [9] concerns the target T4, recombinant human Fc gamma RIIIa …. Described as above.
Assay [10] deals with T5, recombinant human Fc gamma RIIIa …. The description is as above.
Assay [11] addresses T1, recombinant human Fc gamma RIIa (CD32a) …. As to the kind of experiment: BLI (Octet), FcγR on sensor, bivalent format. This is another data set of the same source.
Assay [12] addresses T2, recombinant human Fc gamma RIIIb (CD16b). As to the kind of experiment: BLI (Octet), FcγR on sensor, bivalent format. The source holds these as a separate data set.
Assay [13] addresses T3, recombinant human Fc gamma RIIa (CD32a) …. Nature of the assay: BLI (Octet), FcγR on sensor, bivalent format. This is another data set of the same source.
Assay [14] has as its target T4, recombinant human Fc gamma RIIIa …. Nature of the assay: BLI (Octet), FcγR on sensor, bivalent format. This is another data set of the same source.
Assay [15] deals with T5, recombinant human Fc gamma RIIIa …. Nature of the assay: BLI (Octet), FcγR on sensor, bivalent format. The source holds these as a separate data set.
Assay [16] deals with T6, recombinant human Fc gamma RI (CD64). As to the kind of experiment: BLI (Octet), FcγR on sensor, bivalent format. The source holds these as a separate data set.
The target in assay [17] is T7, recombinant human Fc gamma RIIb/c …. Nature of the assay: BLI (Octet), FcγR on sensor, bivalent format. This is another data set of the same source.
For assay [18], the target named is T1, recombinant human Fc gamma RIIa (CD32a) …. As to the kind of experiment: SPR (Carterra LSA), antibody captured via anti-CH1, monovalent.
For assay [19], the target named is T6, recombinant human Fc gamma RI (CD64). The assay is described as above.
Assay [20] has as its target T7, recombinant human Fc gamma RIIb/c …. Described as above.
Assay [21] deals with T8, cynomolgus monkey Fc gamma receptor CD32a (cynomolgus monkey).
T8 construct: also called CD32a (cynomolgus)
Nature of the assay: SPR (Carterra), monovalent format.

Assay [22] concerns the target T9, cynomolgus monkey Fc gamma receptor CD32b (cynomolgus monkey).
T9 construct: also called CD32b (cynomolgus)
Nature of the assay: SPR (Carterra), monovalent format.

Assay [23] deals with T10, cynomolgus monkey Fc gamma receptor CD16 (cynomolgus monkey, UniProt Q8SPW2 17-208).
T10 construct: also called CD16 (cynomolgus)
As to the kind of experiment: SPR (Carterra), monovalent format.

Assay [24] addresses T8, cynomolgus monkey Fc gamma receptor …. As to the kind of experiment: BLI (Octet), cynomolgus FcγR on sensor.
Assay [25] concerns the target T9, cynomolgus monkey Fc gamma receptor …. Nature of the assay: BLI (Octet), cynomolgus FcγR on sensor.
The target in assay [26] is T10, cynomolgus monkey Fc gamma receptor CD16. Nature of the assay: BLI (Octet), cynomolgus FcγR on sensor.

B1: HB2198 (bispecific antibody, human IgG1, kappa)
heavy 1: QVQLVQSGGGVVQPGRSLRLSCAASGVSLPDYGVSWVRKAPGKGLEWVAVIWGSETTYYNSALKSRFTISRDNSKNTLYLQMSSLRAEDTAVYYCAKHYYYGGSFAMDYWGQGTLVTVSSASTKGPSVFPLAPSSKSTSGGTAALGCLVKDYFPEPVTVSWNSGALTSGVHTFPAVLQSSGLYSLESVVTVPSSSLGTQTYICNVNHKPSNTKVDKKVEPKSCTDWSPYADQSIKVRISLKSALGDKAYEWNDNEMYLFRSSVAYAMRQYFLKVKNQMILFGEEDVRVANLKPRISFNFFVTAPKNVSDIIPRTEVEKAIRMSRSRINDAFRLNDNSLEFLGIQPTLGPPNQPPVSTSTSPTRSMAPGAVHLPQPVSTRDKTHTCPPCPAPELLGGPDVFLFPPKPKDTLMISRTPEVTCVVVDVSHEDPEVKFNWYVDGVEVHNAKTKPREEQYNSTYRVVSVLTVLHQDWLNGKEYKCKVSNKALPAPEEKTISKAKGQPREPQVCTLPPSRDELTKNQVSLSCAVKGFYPSDIAVEWESNGQPENNYKTTPPVLDSDGSFFLVSKLTVDKSRWQQGNVFSCSVMHEALHNRFTQKSLSLSPG
heavy 2: QIVLSQSPAILSASPGEKVTMTCRASSSVSYIHWFQKKPGSSPKPWIYATSNLASGVPVRFSGSGSGTSYSLTISRVEAEDAATYYCQQWTSNPPTFGGGTKVEIKSSASTKGPSVFPLAPSSKSTSGGTAALGCLVKDYFPEPVTVSWNSGALTSGVHTFPAVLQSSGLYSLKSVVTVPSSSLGTQTYICNVNHKPSNTKVDKKVEPKSCDKTHTCPPCPAPELLGGPDVFLFPPKPKDTLMISRTPEVTCVVVDVSHEDPEVKFNWYVDGVEVHNAKTKPREEQYNSTYRVVSVLTVLHQDWLNGKEYKCKVSNKALPAPEEKTISKAKGQPREPQVYTLPPCRDELTKNQVSLWCLVKGFYPSDIAVEWESNGQPENNYKTTPPVLDSDGSFFLYSKLTVDKSRWQQGNVFSCSVMHEALHNHYTQKSLSLSPG
light 1: DIQMTQSPSSLSASVGDRVTITCRASQDISKYLNWYQEKPGKAIKLLIYHTSRLHSGVPSRFSGSGSGTDFTLTISSLQPEDFATYYCQQGATLPYTFGPGTKLEIKRTVAAPSVFIFPPSDEQLKSGTASVKCLLNNFYPREAKVQWKVDNALQSGNSQESVTEQDSKDSTYSLSSTLTLSKADYEKHKVYACEVTHQGLSSPVTKSFNRGEC
light 2: QVQLQQPGAELVKPGASVKMSCKASGYTFTSYNMHWVKETPGRGLEWIGAIYPGNGDTSYNQKFKGKATLTADKSSSTAYMQLSSLTSEDSAVYYCARSTYYGGDWYFNVWGAGTLVTVSSASVAAPSVFIFPPSDEQLKSGTASVECLLNNFYPREAKVQWKVDNALQSGNSQESVTEQDSKDSTYSLSSTLTLSKADYEKHKVYACEVTHQGLSSPVTKSFNRGEC
notes: also called Protein ID 21-98; HB2198 (S239D/1332E)
For B1, the “fold increase of binding affinity compared to tafasitamab” value in [1] was more than 100 fold; in assay [2], more than 88 fold; in assay [3], more than 115 fold; in assay [4] it was more than 44 fold; in assay [5], more than 60 fold; in assay [6] it was more than 278 fold. Also, in assay [7], the “fold increase of binding affinity compared to tafasitamab” value was 106 fold. The Fold in [8] was 45.5 fold; in assay [9], 73.7 fold; in assay [10] it was 96.9 fold; in assay [18] it was 5 fold; in [19], more than 2.7 fold; in assay [20], 31.4 fold. Also, the “Fold (KD of rituximab / KD)” value is more than 1160 fold in [11]; more than 2040 fold in [12]; more than 870 fold in assay [13]; more than 298 fold in assay [14]; more than 765 fold in assay [15]; more than 565 fold in [16]. Besides, the “Fold (KD of rituximab / KD)” value in assay [17] stood at 3050 fold; in assay [24], 1500 fold; in [25], 1060 fold; in assay [26], 214 fold. In addition, the “Fold (KD of MabThera / KD)” value was 10.3 fold in [21], 6.7 fold in assay [22] and 73.8 fold in [23].

B2: HB2174 (bispecific antibody, human IgG1, kappa)
heavy 1: B1 heavy 1 with D398S, E491I
heavy 2: not shown
light 1: B1 light 1
light 2: B1 light 2
notes: also called Protein ID 21-74; HB2174 (wild-type)
Consider B2, for which the Fold in assay [8] was 0.5 fold; in assay [9] it was 0.6 fold; in assay [10], 0.7 fold; in assay [18], 0.7 fold; in [19], 0.5 fold; in [20], 2 fold.

(Values after patent US20250084169A1 (published 2025).)
